Laboratory results reported in ChEMBL document CHEMBL4477204, “Tetrahydroisoquinoline-Derived Urea and 2,5-Diketopiperazine Derivatives as Selective Antagonists of the Transient Receptor Potential Melastatin 8 (TRPM8) Channel Receptor and Antiprostate Cancer Agents” (J Med Chem, 2016).

Tests used:
Assay type in all cases: cell-based
[1] = organism: Rattus norvegicus; experiment: Selectivity ratio of IC50 for recombinant rat TRPV2 expressed in HEK293 cells to IC50 for recombinant rat TRPM8 expressed in HEK293 cells
[2] = organism: Rattus norvegicus; experiment: Selectivity ratio of IC50 for recombinant rat TRPV4 expressed in HEK293 cells to IC50 for recombinant rat TRPM8 expressed in HEK293 cells
[3] = Selectivity ratio of IC50 for recombinant human TRPV1 expressed in HEK293 cells to IC50 for recombinant rat TRPM8 expressed in HEK293 cells
[4] = organism: Rattus norvegicus; experiment: Selectivity ratio of IC50 for recombinant rat TRPA1 expressed in HEK293 cells to IC50 for recombinant rat TRPM8 expressed in HEK293 cells
[5] = organism: Rattus norvegicus; experiment: Selectivity ratio of IC50 for recombinant rat TRPV3 expressed in HEK293 cells to IC50 for recombinant rat TRPM8 expressed in HEK293 cells

SMILES: COc1cc2c(cc1OC)[C@H](c1ccccc1)N(C(=O)N1CCc3cc(OC)c(OC)cc3[C@@H]1c1ccccc1)CC2 (racemic)
- Ratio IC50 [1]: 104
- Ratio IC50 [2]: 165
- Ratio IC50 [3]: 106
- Ratio IC50 [4]: 20
- Ratio IC50 [5]: > 200

SMILES: COc1cc2c(cc1OC)[C@H](c1ccc(Cl)cc1)N(C(=O)N1CCc3cc(OC)c(OC)cc3[C@@H]1c1ccc(Cl)cc1)CC2 (racemic)
- Ratio IC50 [1]: 128
- Ratio IC50 [2]: 189
- Ratio IC50 [3]: 116
- Ratio IC50 [4]: 56
- Ratio IC50 [5]: > 233

SMILES: COc1cc2c(cc1OC)[C@H](c1ccc(F)cc1)N(C(=O)N1CCc3cc(OC)c(OC)cc3[C@@H]1c1ccc(F)cc1)CC2 (racemic)
- Ratio IC50 [1]: 1310
- Ratio IC50 [2]: 1340
- Ratio IC50 [3]: 951
- Ratio IC50 [4]: 228
- Ratio IC50 [5]: 1010

SMILES: COc1cc(/C=C2\NC(=O)[C@@H]3Cc4c(OC)c(C)c(OC)c(OC)c4[C@@H](c4ccccc4)N3C2=O)c(OC)c(C)c1OC
- Ratio IC50 [1]: 20
- Ratio IC50 [2]: > 161
- Ratio IC50 [3]: 111
- Ratio IC50 [4]: 23
- Ratio IC50 [5]: 55
